GIV-Gai inh = blocks GIV peptide binding to rat Galpha-i3; Galpha-i3/FITC-GIV peptide fluorescence polarization, 90 min; stronger effect = lower value; scaled: aluminum fluoride 0%, vehicle 100%; P08753; hit rate 0.42% among 210,000; AID 1224905; percent of control (FP), % (test concentration not listed);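 active = replicate mean at 85% of control or lower, very high polarization wells dropped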;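 also: wells of about 15 µL received 100 nL stock; the first replicate is given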
HCMV UL50-53 inh = disrupts HCMV UL50-UL53 complex binding | HTRF UL50-UL53 interaction, normalized percent inhibition | inhibition, % (concentration not given with the values) | 190,000 compounds, 0.15% hits; in the data active = inhibition above about 27%, passing the limit was not always enough
GIV Gai FP conf = GIV-Galpha-i3 inhibition, FP confirmation. fluorescence polarization, mP at 100 µM. 580 compounds, 38% hits. shares compounds with GIV-Gai inh. FITC-GIV peptide binding to Galphai3, fluorescence polarization; stronger effect = lower value;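 active = inhibition score of 15 or more, meaning 100 minus mean polarization as percent of control over three replicates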
GIV-Gai AS conf = GIV-Galpha-i3 inhibition, AlphaScreen confirmation; shares compounds with GIV-Gai inh; AlphaScreen counts at 100 µM; 580 compounds, 39% hits; AlphaScreen Galphai3-GIV binding, purified proteins, 90 min; stronger effect = lower value; AID 1259351;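 active = inhibition score at or above a set limit, where the score is 100 minus the three-replicate mean percent of control signal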
Of the large screens only hits and unclear results are named; the others gave an inactive call (follow-up assays come after a bar, where they were run). A selection: hits, their analogues and other compounds. The true share with any hit is near 0.43%.

N#Cc1c(N)[n+]([O-])c2ccccc2[n+]1[O-]	GIV-Gai inh -31
CC1=NN(c2ccccc2)C(=O)/C1=C\c1c(O)[nH]c(=O)[nH]c1=O	none
Cn1c(=O)[nH]c2nncnc2c1=O	HCMV UL50-53 inh 78
N#CC(C#N)=Cc1ccc(O)cc1	none (no result: GIV-Gai inh)
CCN(CC)c1ccc(C=C(C#N)C#N)cc1	GIV-Gai inh 51
Cc1ccc(N2C3=[N+](CCCCC3)CC2(O)c2ccccc2)cc1 (stereo not given)	none (no result: HCMV UL50-53 inh)
O=C(Nc1nc2ccccc2s1)c1cccn(Cc2c(F)cccc2Cl)c1=O	none (no result: HCMV UL50-53 inh)
CCOC(=O)C1C2NC(=S)NC1(C)Oc1ccccc12 (stereo not given)	none
CCOC(=O)c1cc(CC)sc1/N=C/C1C(=O)NC(=S)NC1=O	GIV-Gai inh -36 (no result: HCMV UL50-53 inh)
CC(=O)N1c2ccc(C)cc2C2CN(C)CCC21 (stereo not given)	none (no result: HCMV UL50-53 inh)
Cc1ccc2c(c1)C1CN(C)CCC1N2 (stereo not given)	GIV-Gai inh 84
COc1ccc2c(c1)C1(CCN(C(=O)NCCc3ccccc3)C1)C(=O)N2C (stereo not given)	none (no result: HCMV UL50-53 inh)
COc1cc(C=C2C(=O)N(C)C(=O)N(C)C2=O)ccc1OS(=O)(=O)c1ccccc1	HCMV UL50-53 inh 62
CN1C(=O)C(=Cc2ccccc2OS(=O)(=O)c2ccccc2)C(=O)N(C)C1=O	none
COCCNc1cnn(C23CC4CC(CC(C4)C2C(=O)O)C3)c(=O)c1Cl (stereo not given)	none
CN(C)C1(c2nnnn2-c2cccc(Cl)c2)CCCCC1	none (no result: HCMV UL50-53 inh)
CCC(=O)Nc1ccccc1N1CCN(C)CC1	none
O=C1NC(=O)C(=Cc2cn(Cc3ccccc3)c3ccccc23)C(=O)N1	GIV-Gai inh -5.9 (no result: HCMV UL50-53 inh)
O=Cc1cn(Cc2ccc(Cl)cc2)c2ccccc12	none (no result: GIV-Gai inh)
CCCCC/C=C\C/C=C\C/C=C\C/C=C\CCCC(=O)NC	none (no result: GIV-Gai inh)
C1=C(c2cccnc2)Nc2ncnn2C1c1cccs1 (stereo not given)	GIV-Gai inh -74
Cn1c(CCCC(=O)O)nc2cc(N(CCCl)CCCl)ccc21	HCMV UL50-53 inh 67
CC(O)(CNC12CC3CC(CC(C3)C1)C2)c1ccc(Cl)cc1 (stereo not given)	none (no result: GIV-Gai inh)
CN[C@@H]1C2CN3CCC(O2)[C@@H]13 (stereo not given in full)	none
OC1(c2ccc(Br)cc2)C[N+]2=C(CCCCC2)N1c1ccccc1 (stereo not given)	none (no result: HCMV UL50-53 inh)
CC(C)(C)c1ccc(OCCOc2ccccc2C=C2C(=O)NC(=O)NC2=O)cc1	HCMV UL50-53 inh 65
O=C1NC(=O)C(=Cc2ccccc2OCCOc2ccc([N+](=O)[O-])cc2)C(=O)N1	none
N#CC1=C(N)Oc2c(c(=O)oc3ccccc23)C1c1ccc(F)c(Br)c1 (stereo not given)	none (no result: HCMV UL50-53 inh)
CCOC(=O)CSC(c1ccccc1)c1c(C(=O)OC)[nH]c2ccccc12 (stereo not given)	none
CCO/N=C/c1c[nH]c2c(CC)cccc12	none (no result: GIV-Gai inh)
COc1ccc(N2C(=O)/C(=C/c3ccc(-c4cc(C(=O)O)ccc4Cl)o3)C(=O)NC2=S)cc1	none
O=C1NC(=O)C(=Cc2ccc(-c3cc(C(=O)O)ccc3Cl)o2)C(=O)N1	GIV-Gai inh 59 | GIV Gai FP conf 60 | GIV-Gai AS conf 4991
Cc1ccc(Cn2cccc(C(=O)Nc3ccon3)c2=O)cc1	none
CC[C@@]1(O)C(=O)OCc2c1cc1n(c2=O)Cc2cc3c(O)cccc3nc2-1	GIV-Gai inh 77 | GIV Gai FP conf 61 | GIV-Gai AS conf inactive
CC[C@@]1(O)C(=O)OCc2c1cc1n(c2=O)Cc2cc3ccccc3nc2-1	none
CN1C(=O)/C(=C/c2ccc(I)o2)C(=O)NC1=S	GIV-Gai inh 46 | GIV Gai FP conf 56 | GIV-Gai AS conf 812
O=C1NC(=S)N(c2ccc(Br)cc2)C(=O)/C1=C\c1ccc(-c2ccccc2C(=O)O)o1	none
CCOP(=O)(C(NC(=O)c1ccc(Cl)cc1)=C(Cl)Cl)c1ccccc1 (stereo not given)	none (no result: HCMV UL50-53 inh)
CCC(=O)N1C(C(=O)O)CSC12CCN(C)CC2 (stereo not given)	none
Cc1ccc(C(=O)Oc2cccc3cccnc23)cc1S(=O)(=O)N1CCC(C)CC1	none
CCn1cc(C=C2C(=O)NC(=O)NC2=O)c2ccccc21	none | GIV Gai FP conf 19 | GIV-Gai AS conf 15779
CCn1cc(C(=O)c2ccccc2)c2ccccc21	none
COc1ccc2c(C)cc(N(C)C3CCN(C)CC3)nc2c1	none (no result: GIV-Gai inh)
C=CCOc1c(OC)cccc1C1SCC(=O)Nc2n[nH]c(C)c21 (stereo not given)	none
NCCc1cc(O)c(O)cc1O	none (no result: GIV-Gai inh)

Assay outcomes: PubChem, ICCB-Longwood Screening Facility, Harvard Medical School
